In PMC5891061, “Electrophysiological mechanisms of vandetanib-induced cardiotoxicity: Comparison of action potentials in rabbit Purkinje fibers and pluripotent stem cell-derived cardiomyocytes” (PLoS ONE, 2018) one finds APD50 data, which are given here for 1 molecule.

The experiment deals with rabbit Purkinje fibers. In words: Action potential recording in rabbit Purkinje fiber. Particulars: 1 μM, 1 Hz pacing.

`COc1cc2c(Nc3ccc(Br)cc3F)ncnc2cc1OCC1CCN(C)CC1` [Vandetanib] showed an APD50 of 249.5 ± 18.9 ms.
